Measured values reported in patent US20210145989A1, “COMPOSITIONS AND RELATED METHODS FOR BLOCKING OFF-TARGET LOCALIZATION OF MANNOSYLATED DEXTRANS AND OTHER CD206 LIGANDS” (Navidea Biopharmaceuticals, Inc., priority 2019, published 2021).

Tested on: CD206
Conditions: male Sprague Dawley rat, IV

Substance: dextran 3-[(2-aminoethyl)thio]propyl 17-carboxy-10,13,16-tris(carboxymethyl)-8-oxo-4-thia-7,10,13,16-tetraazaheptadec-1-yl 3-[[2-[[1-imino-2-(D-mannopyranosylthio)ethyl]amino]ethyl]thio]propyl ether complexes [99mTc-tilmanocept]
- excretion of injected radioactivity into the urine (by one hour after injection): large portion of the injected radioactivity was excreted into the urine
- localization of radioactivity to the spleen (one hour after injection): significant (but lesser) localization
